Literature values, collected in patent US5888536A, “Liposome composition containing selegilin” (Chinoin Ltd., priority 1994, dated 1999).

System: MAO-B
Settings: known effect

C#CCN(C)[C@H](C)Cc1ccccc1 [selegilin, (-)-[N-α-dimethyl-N-(2-propynylphenylethylamine)]]
MAO-B selectivity of inhibition: selective MAO-B inhibiting effect
